# Data published in PubChem BioAssay AID624464 (National Center for Advancing Translational Sciences (NCATS), 2012).
# Chains of the proteins cited; added tags and fusions are not shown.
# UniProt P14416, whole entry: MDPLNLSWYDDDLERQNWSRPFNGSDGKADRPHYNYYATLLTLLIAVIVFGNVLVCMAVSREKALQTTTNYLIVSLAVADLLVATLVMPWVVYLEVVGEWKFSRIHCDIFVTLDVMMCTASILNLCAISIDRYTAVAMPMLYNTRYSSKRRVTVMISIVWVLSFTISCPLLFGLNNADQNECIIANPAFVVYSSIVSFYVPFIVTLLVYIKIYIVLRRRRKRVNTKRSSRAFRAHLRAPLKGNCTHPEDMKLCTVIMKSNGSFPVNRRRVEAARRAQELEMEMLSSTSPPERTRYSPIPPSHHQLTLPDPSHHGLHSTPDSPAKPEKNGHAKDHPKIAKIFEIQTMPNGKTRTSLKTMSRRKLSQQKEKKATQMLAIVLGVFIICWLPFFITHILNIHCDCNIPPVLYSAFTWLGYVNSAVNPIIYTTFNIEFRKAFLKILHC
# Only a part is listed here, and it is no random draw. Activity calls are given as the source filed them. Cut-off read from the data, not from the text of the source: active = potentiation above about 50%; inconclusive = mostly about 30% to 49%; inactive = weaker than that.
# Target: D(2) dopamine receptor (Homo sapiens) (UniProt P14416)
# Test: Beta-Arrestin HTS for Positive Allosteric Modulators of the Human D2 Dopamine Receptor: Potentiators
# Conditions: DiscoveRx D2 beta-arrestin cells, luminescence, 90 min; active compounds read high; 100% = 57 uM dopamine signal
# Source text: There is great interest in identifying small molecule ligands for G-protein coupled receptors (GPCRs) as nearly 50% of all FDA-approved drugs target these important receptor proteins. […] Amongst the dopamine receptors (DARs), the D2 is arguably one of the most validated drug targets in neurology and psychiatry. For instance, all receptor-based antiparkinsonian drugs primarily work via stimulating the D2 DAR, whereas all FDA-approved antipsychotic agents are antagonists of this receptor. The D2 DAR is also therapeutically targeted in other disorders such as restless legs syndrome, tardive dyskinesia, Tourette's syndrome, and hyperprolactinemia.
# To this end, a miniaturized qHTS screen was developed to be screened against the Molecular Libraries Small Molecule Repository (MLSMR). This assay seeks to identify potentiators against the D2 DAR.
# NIH Molecular Libraries Probe Production Network [MLPCN]
# NIH Chemical Genomics Center [NCGC]
# PI Name: David Sibley, National Institutes of Neurological Disorders and Stroke
# DiscoveRx D2 cells were thawed from frozen stock and seeded at 2,100 cells/ 3 uL/well media (DiscoveRx Plating Reagent 2) with MultiDrop Combi dispenser (Thermo Scientific, Logan, UT) onto white tissue culture treated 1536-well Aurora plates (Brooks Automation, Chelmsford, MA) and allowed to attach overnight at 37 deg C, 5% CO2. Next, 23 nL/well of compound solutions in DMSO were added with a pintool transfer (Kalypsis, San Diego, CA). As the positive control, 1 uL/well dopamine (EC100, 57 uM final concentration) diluted in buffer (HBSS + 10 mM HEPES + SMB + 0.1 %Tween-20) was dispensed to 1 column of each plate. EC20 (Dopamine at 50 nM final concentration) was dispensed to the rest of the plate except columns 1 &2 which were used as negative control (EC=0, buffer only), 1 uL/well as well. The cells were stimulated by compounds and dopamine for 90 minutes at 37 deg C, 5% CO2, after which 1.5 uL/well of DiscoveRx detection reagent was added with BioRAPTR FRD dispenser. The detection reagent was prepared by mixing of Galacton Star Substrate, Emerald II solution and PathHunter buffer (supplied by the assay kit) together at 1:5:19 proportion accordingly just prior to dispensing. The plates were incubated at ambient temperature for 1 hour and then the luminescent signal was read on ViewLux plate reader (PerkinElmer, Waltham, MA).
row,Structure (SMILES),potentiation
1,COc1cccc(C(c2nnnn2C2CCCC2)N2CCC(n3c(=O)[nH]c4ccccc43)CC2)c1OC (stereo unspecified),inactive: 6.68%
2,COc1cccc(C(=O)N(c2cc(C)cc(C)c2)C2CCN(C(=O)OC(C)(C)C)CC2)c1,inactive: -5.47%
3,CCC(CO)(C(=O)OC1CN2CCC1CC2)c1ccccc1 (stereo unspecified),inactive: -4.97%
4,CN1CCC(Nc2ccc(Cl)cc2)CC1,inactive: -23.1%
5,CC(C)(C)OC(=O)N1CCC(N(C(=O)c2ccccc2)c2ccc(F)cc2)CC1,inactive: -5.66%
6,COc1ccc(C(=O)NCC2(N3CCCCC3)CCCCC2)c(OC)c1OC,inactive: 4.15%
7,CCC(c1nnnn1C1CCCC1)N1CCC(n2c(=O)[nH]c3ccccc32)CC1 (stereo unspecified),inactive: -5.54%
8,COc1ccc(C(=O)NCC2(N3CCCCC3)CCCCC2)cc1,inactive: -10.5%
9,O=C(NCC1(N2CCCCC2)CCCCC1)c1cccs1,inactive: -37.7%
10,CCCCn1nnnc1C(CC)N1CCC(n2c(=O)[nH]c3ccccc32)CC1 (stereo unspecified),inactive: 0.395%
11,CCCCn1nnnc1C(c1cccs1)N1CCC(n2c(=O)[nH]c3ccccc32)CC1 (stereo unspecified),inactive: 24.2%
12,O=C(NCC1(N2CCCCC2)CCCCC1)c1ccc(=O)[nH]c1,inactive: -6.91%
13,Cc1cccc(NC2(C#N)CCN(Cc3ccccc3)CC2)c1,inactive: -34%
14,CSc1ccccc1C(=O)NCC1(N2CCCCC2)CCCCC1,inactive: -7.79%
15,Cc1cc(C)cc(N(C(=O)c2ccccc2)C2CCN(C(=O)OC(C)(C)C)CC2)c1,inactive: 0.221%
16,O=C(NCC1(N2CCCCC2)CCCCC1)c1ccc(Cl)nc1,inactive: -4.28%
17,O=c1[nH]c2ccccc2n1C1CCN(C(c2ccccc2OC(F)(F)F)c2nnnn2C2CCCCC2)CC1 (stereo unspecified),inactive: -2.04%
18,O=C(NCC1(N2CCOCC2)CCCCC1)c1cc2ccccc2o1,inactive: -15.4%
19,COc1ccc(Cl)cc1C(=O)NCC1(N2CCOCC2)CCCCC1,inactive: -27%
20,O=C1C(O)=C([N+](=O)[O-])C(=O)C(O)=C1[N+](=O)[O-],inactive: -4.93%
21,O=C(NCC1(N2CCCCC2)CCCCC1)c1ccc(Cl)s1,inactive: -33.8%
22,N#CC1(Nc2ccccc2)CCN(Cc2ccccc2)CC1,inactive: -3.21%
23,O=C(OC1CN2CCC1CC2)C1c2ccccc2Oc2ccccc21 (stereo unspecified),inactive: 1.98%

row,Structure (SMILES),potentiation
1,O=c1[nH]c2ccccc2n1C1CCN(C(c2cc3ccccc3o2)c2nnnn2C2CCCCC2)CC1 (stereo unspecified),inactive: 4.24%
2,CCCCn1nnnc1C(c1ccc(OC)cc1)N1CCC(n2c(=O)[nH]c3ccccc32)CC1 (stereo unspecified),inactive: -7.27%
3,CCOC(=O)N1CCC(Nc2ccc(OC)cc2)CC1,inactive: -1.2%
4,O=C1CCN(Cc2ccccc2)CC1,inactive: -39.2%
5,CC(C)(C)n1nnnc1C(c1ccccc1)N1CCC(n2c(=O)[nH]c3ccccc32)CC1 (stereo unspecified),inactive: -0.548%
6,CCOc1ccc(C)cc1CN(CCCl)CCCl,inactive: -27.4%
7,COc1ccc(NC2CCN(CCc3ccccc3)CC2)c(OC)c1,inactive: -25%
8,CCOC(=O)N1CCC(Nc2ccc(F)cc2)CC1,inactive: -1.32%
9,CCCCn1nnnc1C(c1cc2ccccc2o1)N1CCC(n2c(=O)[nH]c3ccccc32)CC1 (stereo unspecified),inactive: 1.28%
10,O=P1(N(CCCl)CCCl)SCCCS1,inactive: 8.19%
11,CCCCOc1ccc(C(=O)NCC2(N3CCOCC3)CCCCC2)cc1,inactive: -20.8%
12,O=C(NCC1(N2CCCCC2)CCCCC1)c1ccc(F)cc1,inactive: -2.65%
13,O=c1[nH]c2ccccc2n1C1CCN(C(c2ccccc2)c2nnnn2C2CCCCC2)CC1 (stereo unspecified),inactive: 2.37%
14,CCOC(=O)N1CCC(Nc2cccc(C)c2)CC1,inactive: 8.99%
15,COc1cc(C(=O)NCC2(N(C)C)CCCCC2)ccc1OC(F)F,inactive: -18.9%
16,O=c1[nH]c2ccccc2n1C1CCN(C(c2cccc3ccccc23)c2nnnn2C2CCCC2)CC1 (stereo unspecified),inactive: -9.66%
17,O=C(NCC1(N2CCCCC2)CCCCC1)c1ccc(OC(F)F)cc1,inactive: -6.25%
18,CC(C)(C)n1nnnc1C(c1ccccc1OC(F)(F)F)N1CCC(n2c(=O)[nH]c3ccccc32)CC1 (stereo unspecified),inactive: 1.67%
19,O=c1[nH]c2ccccc2n1C1CCN(C(c2ccccc2OC(F)(F)F)c2nnnn2C2CCCC2)CC1 (stereo unspecified),inactive: -0.38%
20,N#CC1(Nc2ccccc2)CCN(CCc2ccccc2)CC1,inactive: -7.53%
21,CCN1CCC(Nc2ccc(Cl)cc2)CC1,inactive: -1.51%
22,O=C(NCC1(N2CCCCC2)CCCCC1)c1cccc([N+](=O)[O-])c1,inactive: -9.75%
23,CSc1ccc(C(=O)NCC2(N3CCOCC3)CCCCC2)cc1,inactive: 11.9%
